Test results taken from ChEMBL document CHEMBL1240533, “Selectivity and potency of cyclin-dependent kinase inhibitors” (AAPS J, 2006).

The chains behind the UniProt entries cited, without tags or fusion partners.
UniProt P20248, whole entry: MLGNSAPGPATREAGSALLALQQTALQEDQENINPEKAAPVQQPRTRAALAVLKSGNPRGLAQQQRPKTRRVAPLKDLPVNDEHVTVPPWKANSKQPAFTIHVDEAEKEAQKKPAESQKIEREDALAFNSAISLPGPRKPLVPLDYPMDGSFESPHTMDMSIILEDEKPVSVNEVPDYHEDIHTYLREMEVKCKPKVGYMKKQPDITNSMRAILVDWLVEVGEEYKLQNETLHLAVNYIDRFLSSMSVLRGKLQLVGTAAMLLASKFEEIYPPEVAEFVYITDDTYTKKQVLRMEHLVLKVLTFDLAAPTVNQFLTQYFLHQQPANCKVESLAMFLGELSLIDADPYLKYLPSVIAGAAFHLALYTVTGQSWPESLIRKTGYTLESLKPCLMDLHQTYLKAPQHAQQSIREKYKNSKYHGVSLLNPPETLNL

Experiments:
[1] = target: Cyclin-dependent kinase 2/cyclin A (Homo sapiens, UniProt P24941); assay type: protein-complex assay
[2] = target: Cyclin-A2 (Homo sapiens, UniProt P20248)

IC50 [1]: 12 µM
IC50 [2]: 21 µM
SMILES: CC(C)C[C@H](NC(=O)[C@H](CCCNC(N)=O)NC(=O)[C@@H](N)CCCNC(N)=O)C(=O)N[C@@H](C)C(=O)N[C@@H](Cc1ccc(F)cc1)C(N)=O
